Assay results taken from US10011599B2 (priority 2013, dated 2018).

How the values were obtained:
[1] = tested on: phospho-ERK1/2 in A375 cells; assay: cells; settings: Homo sapiens, A-375, 3 h, read-out: A375 ICW IC50
[2] = tested on: A375 cells; assay: cells; settings: Homo sapiens, A-375, 72 h, read-out: A375 XTT IC50 uM

Row | SMILES | IC50 [1] | IC50 [2]
1 | Cc1nc2cnc3cc(F)c(-c4ccc(Oc5cccn(C)c5=O)cc4Cl)cc3c2n1C1CCN(C(N)=O)CC1 [Example 73, 4-(8-(2-chloro-4-((1-methyl-2-oxo-1,2-dihydropyridin-3-yl)oxy)phenyl)-7-fluoro-2-methyl-1H-imidazo[4,5-c]quinolin-1-yl)piperidine-1-carboxamide] | 175 nM | 0.254 µM
2 | Cc1nc2cnc3cc(F)c(-c4ccc(Oc5ncccn5)cc4Cl)cc3c2n1C1CCN(CC(N)=O)CC1 [Example 13, 2-(4-(8-(2-chloro-4-(pyrimidin-2-yloxy)phenyl)-7-fluoro-2-methyl-1H-imidazo[4,5-c]quinolin-1-yl)piperidin-1-yl)acetamide] | 1880 nM | 1.11 µM
3 | CC1(n2cnc3cnc4cc(F)c(-c5ccc(Oc6ncccn6)cc5Cl)cc4c32)CCN(C(=O)CO)CC1 [Example 33, 1-(4-(8-(2-chloro-4-(pyrimidin-2-yloxy)phenyl)-7-fluoro-1H-imidazo[4,5-c]quinolin-1-yl)-4-methylpiperidin-1-yl)-2-hydroxyethanone] | 60 nM | 0.054 µM
4 | Cc1ccnc(Oc2ccc(-c3cc4c(cc3F)ncc3nc(C)n(C5CCN(CCO)CC5)c34)c(Cl)c2)n1 [Example 36, 2-(4-(8-(2-chloro-4-((4-methylpyrimidin-2-yl)oxy)phenyl)-7-fluoro-2-methyl-1H-imidazo[4,5-c]quinolin-1-yl)piperidin-1-yl)ethanol] | 44 nM | 0.091 µM
5 | Cc1ccnc(Oc2ccc(-c3cc4c(cc3F)ncc3nc(C)n(C5CCN(C(=O)CO)CC5)c34)c(C)c2)n1 [Example 77, 1-(4-(7-fluoro-2-methyl-8-(2-methyl-4-((4-methylpyrimidin-2-yl)oxy)phenyl)-1H-imidazo[4,5-c]quinolin-1-yl)piperidin-1-yl)-2-hydroxyethanone] | 65 nM | 0.09 µM
6 | Cc1ccnc(Oc2ccc(-c3cc4c(cc3F)ncc3ncn(C5(C)CCN(C(=O)CO)CC5)c34)c(F)c2)n1 [Example 83, 1-(4-(7-fluoro-8-(2-fluoro-4-((4-methylpyrimidin-2-yl)oxy)phenyl)-1H-imidazo[4,5-c]quinolin-1-yl)-4-methylpiperidin-1-yl)-2-hydroxyethanone] | 88 nM | 0.301 µM
7 | Cc1ccnc(Oc2ccc(-c3cc4c(cc3F)ncc3ncn(C5(C)CCN(C(N)=O)CC5)c34)c(F)c2)n1 [Example 79, 4-(7-fluoro-8-(2-fluoro-4-((4-methylpyrimidin-2-yl)oxy)phenyl)-1H-imidazo[4,5-c]quinolin-1-yl)-4-methylpiperidine-1-carboxamide] | 7 nM | 0.0056 µM
8 | COc1cc(Oc2ncccn2)ccc1-c1cc2c(cc1F)ncc1ncn(C3(C)CCN(CCO)CC3)c12 [Example 19, 2-(4-(7-fluoro-8-(2-methoxy-4-(pyrimidin-2-yloxy)phenyl)-1H-imidazo[4,5-c]quinolin-1-yl)-4-methylpiperidin-1-yl)ethanol] | 1700 nM | 0.643 µM
9 | Cc1nc2cnc3cc(F)c(-c4ccc(Oc5ncccn5)cc4Cl)cc3c2n1[C@H]1CCN(C(=O)C2CCO2)C[C@@H]1F (stereo partly drawn) [Example 86, ((3S,4S)-4-(8-(2-chloro-4-(pyrimidin-2-yloxy)phenyl)-7-fluoro-2-methyl-1H-imidazo[4,5-c]quinolin-1-yl)-3-fluoropiperidin-1-yl)(oxetan-2-yl)methanone] | 176 nM | 0.175 µM
10 | Cc1nc2cnc3cc(F)c(-c4ccc(Oc5cccn(C)c5=O)cc4Cl)cc3c2n1C1CCN(C(=O)CO)CC1 [Example 63, 3-(3-chloro-4-(7-fluoro-1-(1-(2-hydroxyacetyl)piperidin-4-yl)-2-methyl-1H-imidazo[4,5-c]quinolin-8-yl)phenoxy)-1-methylpyridin-2(1H)-one] | 245 nM | 0.714 µM
11 | Cc1nc2cnc3cc(F)c(-c4ccc(Oc5cccc(CO)n5)cc4Cl)cc3c2n1C1CCN(C(=O)CO)CC1 [Example 44, 1-(4-(8-(2-chloro-4-((6-(hydroxymethyl)pyridin-2-yl)oxy)phenyl)-7-fluoro-2-methyl-1H-imidazo[4,5-c]quinolin-1-yl)piperidin-1-yl)-2-hydroxyethanone] | 26 nM | 0.011 µM
12 | Cc1ccnc(Oc2ccc(-c3cc4c(cc3F)ncc3nc(C)n(C5CCN(C(=O)CO)CC5)c34)c(F)c2)n1 [Example 71, 1-(4-(7-fluoro-8-(2-fluoro-4-((4-methylpyrimidin-2-yl)oxy)phenyl)-2-methyl-1H-imidazo[4,5-c]quinolin-1-yl)piperidin-1-yl)-2-hydroxyethanone] | 76 nM | 0.144 µM
13 | COCCN1CCC(n2c(C)nc3cnc4cc(F)c(-c5ccc(Oc6ncccn6)cc5Cl)cc4c32)CC1 [Example 2, 8-(2-chloro-4-(pyrimidin-2-yloxy)phenyl)-7-fluoro-1-(1-(2-methoxyethyl)piperidin-4-yl)-2-methyl-1H-imidazo[4,5-c]quinoline] | 3270 nM | 2.41 µM
14 | Cc1ccnc(Oc2ccc(-c3cc4c(cc3F)ncc3nc(C)n([C@@H]5CCN(CC#N)C[C@H]5F)c34)c(Cl)c2)n1 [Example 57, 2-((3R,4R)-4-(8-(2-chloro-4-((4-methylpyrimidin-2-yl)oxy)phenyl)-7-fluoro-2-methyl-1H-imidazo[4,5-c]quinolin-1-yl)-3-fluoropiperidin-1-yl)acetonitrile] | 89 nM | 0.041 µM
15 | CC1(n2cnc3cnc4cc(F)c(-c5ccc(Oc6ncccn6)cc5Cl)cc4c32)CCN(C(N)=O)CC1 [Example 64, 4-(8-(2-chloro-4-(pyrimidin-2-yloxy)phenyl)-7-fluoro-1H-imidazo[4,5-c]quinolin-1-yl)-4-methylpiperidine-1-carboxamide] | 7 nM | 0.016 µM
16 | Cc1nc2cnc3cc(F)c(-c4ccc(Oc5ncccn5)cc4Cl)cc3c2n1C1CCN(CC#N)CC1 [Example 84, 2-(4-(8-(2-chloro-4-(pyrimidin-2-yloxy)phenyl)-7-fluoro-2-methyl-1H-imidazo[4,5-c]quinolin-1-yl)piperidin-1-yl)acetonitrile] | 58 nM | 0.225 µM
17 | COc1cc(Oc2nccc(C)n2)ccc1-c1cc2c(cc1F)ncc1ncn(C3(C)CCN(C(N)=O)CC3)c12 [Example 37, 4-(7-fluoro-8-(2-methoxy-4-((4-methylpyrimidin-2-yl)oxy)phenyl)-1H-imidazo[4,5-c]quinolin-1-yl)-4-methylpiperidine-1-carboxamide] | 9 nM | 0.008 µM
18 | COc1cc(Oc2nccc(C)n2)ccc1-c1cc2c(cc1F)ncc1ncn(C3(C)CCN(C(=O)CO)CC3)c12 [Example 24, 1-(4-(7-fluoro-8-(2-methoxy-4-((4-methylpyrimidin-2-yl)oxy)phenyl)-1H-imidazo[4,5-c]quinolin-1-yl)-4-methylpiperidin-1-yl)-2-hydroxyethanone] | 220 nM | 0.161 µM
19 | COc1cc(Oc2ncccn2)ccc1-c1cc2c(cc1F)ncc1ncn(C3(C)CCN(C(N)=O)CC3)c12 [Example 38, 4-(7-fluoro-8-(2-methoxy-4-(pyrimidin-2-yloxy)phenyl)-1H-imidazo[4,5-c]quinolin-1-yl)-4-methylpiperidine-1-carboxamide] | 63 nM | 0.119 µM
20 | Cc1ccnc(Oc2ccc(-c3cc4c(cc3F)ncc3nc(C)n(C5CCN(C(=O)[C@H](C)O)CC5)c34)c(Cl)c2)n1 [Example 35, (S)-1-(4-(8-(2-chloro-4-((4-methylpyrimidin-2-yl)oxy)phenyl)-7-fluoro-2-methyl-1H-imidazo[4,5-c]quinolin-1-yl)piperidin-1-yl)-2-hydroxypropan-1-one] | 18 nM | 0.026 µM
21 | Cc1nc2cnc3cc(F)c(-c4ccc(Oc5cccn(C)c5=O)cc4Cl)cc3c2n1C1CCN(C(=O)[C@H](C)O)CC1 [Example 81, (S)-3-(3-chloro-4-(7-fluoro-1-(1-(2-hydroxypropanoyl)piperidin-4-yl)-2-methyl-1H-imidazo[4,5-c]quinolin-8-yl)phenoxy)-1-methylpyridin-2(1H)-one] | 381 nM | 1.15 µM
22 | Cc1ccnc(Oc2ccc(-c3cc4c(cc3F)ncc3nc(C)n([C@H]5CCN(C(=O)CO)C[C@@H]5F)c34)c(Cl)c2)n1 [Example 68, 1-((3S,4S)-4-(8-(2-chloro-4-((4-methylpyrimidin-2-yl)oxy)phenyl)-7-fluoro-2-methyl-1H-imidazo[4,5-c]quinolin-1-yl)-3-fluoropiperidin-1-yl)-2-hydroxyethanone] | 7 nM | 0.0025 µM
23 | Cc1nc2cnc3cc(F)c(-c4ccc(Oc5nccc(C6CC6)n5)cc4Cl)cc3c2n1C1CCN(C(=O)CO)CC1 [Example 54, 1-(4-(8-(2-chloro-4-((4-cyclopropylpyrimidin-2-yl)oxy)phenyl)-7-fluoro-2-methyl-1H-imidazo[4,5-c]quinolin-1-yl)piperidin-1-yl)-2-hydroxyethanone] | 42 nM | 0.025 µM
24 | Cc1nc2cnc3cc(F)c(-c4ccc(Oc5ncccn5)cc4Cl)cc3c2n1C1CCN(CC2COC2)CC1 [Example 25, 8-(2-chloro-4-(pyrimidin-2-yloxy)phenyl)-7-fluoro-2-methyl-1-(1-(oxetan-3-ylmethyl)piperidin-4-yl)-1H-imidazo[4,5-c]quinoline] | 3050 nM | 1.72 µM
25 | Cc1ccnc(Oc2ccc(-c3cc4c(cc3F)ncc3ncn(C5(C)CCN(C(=O)C(C)O)CC5)c34)c(Cl)c2)n1 (stereo not drawn) [Example 21, 1-(4-(8-(2-chloro-4-((4-methylpyrimidin-2-yl)oxy)phenyl)-7-fluoro-1H-imidazo[4,5-c]quinolin-1-yl)-4-methylpiperidin-1-yl)-2-hydroxypropan-1-one] | 71 nM | 0.085 µM
26 | CC(=O)OCC(=O)N1CC[C@H](n2c(C)nc3cnc4cc(F)c(-c5ccc(Oc6ncccn6)cc5Cl)cc4c32)[C@@H](F)C1 [Example 49, 2-((3S,4S)-4-(8-(2-chloro-4-(pyrimidin-2-yloxy)phenyl)-7-fluoro-2-methyl-1H-imidazo[4,5-c]quinolin-1-yl)-3-fluoropiperidin-1-yl)-2-oxoethyl acetate] | – | 0.034 µM
